These results are taken from patent publication US11786497B2, “High penetration prodrug compositions of retinoids and retinoids-related compounds” (Techfields Pharma Co., Ltd., priority 2007, dated 2023).

In this experiment the test system is human colon cancer cells (LS174J). As to the kind of experiment: Anti-colon cancer activity, subcutaneous xenograft in nude mice.
The mark [1] stands for this setting: 10 mg/kg per day, transdermally, n=7.

SMILES strings stand for the structures.

For `C=C(c1ccc(C(=O)OCN2CCCC2)cc1)c1cc2c(cc1C)C(C)(C)CCC2(C)C.Cl`, the “Life Elongation Rate” value (10 mg/kg per day, transdermally, control = 100) amounted to 209%. Also, the “Tumor size at day 40” value under setting [1] is listed as 487 ± 61 mm^3. For the same compound, the “Tumor size at day 10” value (10 days after implantation (baseline size of the group)) is 56 ± 1 mm^3.

Consider `Br.CC1=C(/C=C/C(C)=C/C=C/C(C)=C/C(=O)OCCN2CCCCC2)C(C)(C)CCC1`, for which the “Survival Period” value under setting [1] was found to be 85.7 ± 7.6 days.

In the case of `Br.CC1=C(/C=C/C(C)=C\C=C\C(C)=C\C(=O)OCC2CCCN2)C(C)(C)CCC1` (stereo not drawn) [9-cis-retinoic acid 2-pyrrolidinemethyl ester·HBr], the “Survival Period” value under setting [1] is given as 81.5 ± 5.7 days.
